Here are results for one substance from patent US20170339949A1, “SUGAR SURFACTANTS AND USE THEREOF IN AGROCHEMICAL COMPOSITIONS” (Clariant International Ltd., priority 2014, published 2017).

The test system of the data set is poinsettia plants of the Princettia variety. The experiment in a line: Plant compatibility after application to poinsettia plants. Conditions: 1 g/L, within one day.

ethoxylated lauryl alcohol: the “Plant compatibility: necroses” value is reported as “distinct necroses”.
